A word on the Ki: it is a dissociation constant, usually derived from enzyme kinetics or from competition with a known ligand.

Sequences of proteins named here, by UniProt entry; tags and fusion partners are left off. A change or cut given only in a name is not applied to a line headed by its entry.
UniProt P08482: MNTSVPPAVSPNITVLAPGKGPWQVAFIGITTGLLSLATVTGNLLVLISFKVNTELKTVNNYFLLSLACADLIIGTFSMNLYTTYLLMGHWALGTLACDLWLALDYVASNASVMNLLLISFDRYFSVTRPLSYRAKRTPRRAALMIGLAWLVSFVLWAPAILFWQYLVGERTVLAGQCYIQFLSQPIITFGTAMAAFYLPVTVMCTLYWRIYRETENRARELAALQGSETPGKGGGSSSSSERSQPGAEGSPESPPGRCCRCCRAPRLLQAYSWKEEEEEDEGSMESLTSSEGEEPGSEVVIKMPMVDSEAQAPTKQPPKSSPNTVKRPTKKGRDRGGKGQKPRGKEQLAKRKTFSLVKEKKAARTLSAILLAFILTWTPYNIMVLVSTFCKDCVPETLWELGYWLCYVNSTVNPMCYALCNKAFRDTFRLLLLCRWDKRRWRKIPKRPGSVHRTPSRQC

Each structure is given as a SMILES string.

One compound from BindingDB's records for PubMed 2704370 (National Institute of Mental Health, 1989) can be followed below.

The target in the experiment is Muscarinic acetylcholine receptor M1 (Rattus norvegicus, UniProt P08482).

In turn, `COc1ccccc1CNCCCCCCNCCCCCCCCNCCCCCCNCc1ccccc1OC` [METHOCTRAMINE] showed a Ki of 16 nM.
